## Yeast mating assay B: variants of the scFv Ab-14

Antigen: PDVDLGDISGINAS, a 14-residue peptide of the SARS-CoV-2 spike HR2 region.

The variants keep the heavy chain, the linker and the frameworks of Ab-14 (scFv order VH, a 15-residue (Gly4Ser)3 linker, VL).
VH: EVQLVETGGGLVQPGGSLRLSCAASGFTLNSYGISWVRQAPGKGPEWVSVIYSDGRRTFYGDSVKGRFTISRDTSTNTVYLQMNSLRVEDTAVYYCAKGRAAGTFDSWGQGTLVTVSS
VL: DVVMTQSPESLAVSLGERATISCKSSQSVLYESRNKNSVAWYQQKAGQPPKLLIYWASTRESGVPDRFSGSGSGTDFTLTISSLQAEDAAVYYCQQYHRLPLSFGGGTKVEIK

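These sequences belong to a second round, designed from the earlier measurements on random variants of the parent. Their group label is 14L_En_Gen (En: ensemble of fine-tuned language models; Gen: genetic algorithm). The scFvs were displayed on barcoded MATa yeast, the peptide on MATalpha yeast. Binding brings cells together so that they mate, and sequencing counts the barcode pairs among the diploids. Read counts were normalised to the haploid input and turned into Kd by a linear fit to BCL2-family pairs of known affinity, for each replicate. Each pool was mated in six replicate cultures.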

Variants are written as CDR1, CDR2 and CDR3 of the light chain (limits as in the source). Parent: KSSQSVLYESRNKNSVA, WASTRES, QQYHRLPLS. Values are log10 of the apparent Kd in nM; lower means stronger binding. "ND" means that the variant was in the library but no mating with the target was seen in that replicate; the authors take this as a sign of poor binding, and no number exists. The authors' rule: three or more of the six replicates give a measured affinity, fewer mean a poor binder.

CDR-L1,CDR-L2,CDR-L3,"log10 Kd, replicates",control signals
HITMGTYVSGRHHSNIA,QAETRAK,QQYDRLPLI,1.64 1.24 2.04 2.62 1.47 1.86,0 of 18
SISMLLNFEMKIGNNVA,QMETRVN,QQYDRLPLS,2.60 2.98 2.60 3.60 2.80 ND,0 of 18
KITATMRFEQKQKNNIA,EVTTRSK,QQYYRLPLS,1.26 1.35 1.14 0.76 1.65 0.77,1 of 18 (1.93)
KISQMSRVGSTHSNSIA,EEVTRAK,QQYHRLPLA,1.64 0.96 0.82 1.02 0.63 0.15,1 of 18 (1.15)
KLNMLTGLETKMRNSVA,QMTTREE,QQYNHLPLS,0.29 0.13 0.53 -0.30 0.01 0.22,2 of 18 (2.49)
KLSSITGHMQVEKNNVA,EMETREK,QQYNRLPLA,0.42 0.63 0.41 0.97 0.03 0.83,0 of 18
TIPTLMGHVSKHTNNVA,DMDTRGD,QQYNRLPLS,0.20 0.38 0.09 -0.16 -0.05 0.08,2 of 18 (2.76)
HITMGMYVSGRYHSSIA,QAEERAK,QQYDRLPLI,1.21 1.31 1.24 1.31 0.63 1.04,1 of 18 (1.72)
KIGYNTGQESFHKDNIA,DVRDREE,QQYHRLPLS,0.77 0.61 0.35 0.21 0.55 0.63,0 of 18
IVNGVLDHLSKNTNNVA,ETSTRES,QQYDRLPLQ,0.59 0.71 0.70 0.57 0.70 0.73,1 of 18 (1.98)
HLGLVTELEAKVKNSVA,NNSTREE,QQYDRLPLS,1.98 0.90 1.40 2.57 2.82 1.22,0 of 18
TISGTLMFGMRNRSNVA,EVSERLN,QQYDRLPLI,2.51 2.05 1.66 1.80 2.19 2.00,0 of 18
MVNGIMDHLSKNSNNVA,ETETRNS,QQYDRLPLS,1.10 1.34 0.53 1.04 0.60 0.81,1 of 18 (3.22)
SIGGAMKSSYAHRNSVA,DMTNRED,QQYDRLPLS,0.26 -0.04 -0.15 0.10 0.03 -0.13,0 of 18
TISGTLMFGMRNRSNVA,EVSQRLN,QQYDRLPLF,2.81 1.63 1.78 ND 3.04 2.65,2 of 18 (2.86)
MISQLMNLGQFAINSVA,QAEIRNN,QQYDRLPLA,0.90 ND 2.07 0.35 1.44 ND,0 of 18
KVSEFMRGLMSKKDSIA,DNVTRSN,QQYDRLPLS,0.92 0.58 1.00 0.24 0.65 0.59,2 of 18 (2.41)
IVSQLMLWGMHAKNSIA,EAEMRTN,QQYDRLPLI,ND ND ND ND ND ND,0 of 18
MIHEMMGLVSHKNSSIA,DNSTREE,QQYDRLPLS,2.25 2.89 2.05 ND 3.26 2.92,0 of 18
MISQLMNMGQFAINSVA,QVSIRNE,QQYDRLPLM,2.20 1.71 ND 2.58 1.67 ND,2 of 18 (1.38)
KVSGFMRGLTQRKDSIA,DNNTRSN,QQYDRLPLS,ND 4.17 ND ND ND 3.10,0 of 18
KIGATLNMLEHKENNVA,DLVERGN,QQYFRLPLS,0.41 0.03 0.40 -0.02 0.12 -0.04,1 of 18 (2.92)
IVSQLMMWGLHAKNSIA,EAETRLN,QQYDRLPLF,ND 2.12 1.27 2.36 1.97 3.12,1 of 18 (2.21)
HMSMLTLGGLKERNSVA,QMTTREN,QQYDHLPLS,0.64 0.31 0.42 0.60 0.88 0.82,3 of 18 (2.56)
KLSMITGHMSTIKNNVA,EMETREN,QQYNRLPLA,0.54 0.14 0.51 0.13 -0.17 0.35,0 of 18
KLVNFMNRGTHNTSNIA,DAQNRSD,QQYARLPLA,1.03 0.55 0.70 0.95 0.94 0.51,1 of 18 (3.18)
KVSEFMRGLMGRKDSIA,DNETRSN,QQYDRLPLS,1.55 1.81 0.43 0.95 0.97 1.78,0 of 18
SLGLSTMLEEYVRNSVA,NNSTREK,QQYDRLPLS,ND 3.38 ND ND ND ND,0 of 18
IVSQLMLWGMHATNSIA,EAQTRLN,QQYDRLPLI,ND 2.07 ND 2.33 ND ND,2 of 18 (1.62)
KVSEFMRGLMQKTDSIA,DNVTRNS,QQYDRLPLS,1.46 2.58 2.15 1.56 1.80 1.39,2 of 18 (4.03)
KISMLSENELKNRNSVA,ELVTRVN,QQYNRLPLS,0.21 0.31 0.37 0.17 0.52 0.38,0 of 18
KLSMITGHMQVEKNNVA,EMETREN,QQYNRLPLS,0.39 -0.06 0.04 0.01 0.10 0.32,1 of 18 (3.04)
MISQLMNLGQFAINSVA,QASIRNA,QQYDRLPLV,2.41 2.24 1.29 2.52 1.52 2.10,0 of 18
NISHFMDVTAKHNNNVA,EMTMRET,QQYHHLPLS,1.76 1.50 1.27 1.58 1.40 1.65,0 of 18
KVSEFPRGLMSRQDSIA,DNTTREN,QQYDRLPLS,ND ND ND ND 2.87 ND,1 of 18 (2.66)
IVSQLMLWGMHAKNSIA,EAVTRLN,QQYDRLPLF,ND ND ND ND ND ND,0 of 18
KISQMIRVGSTHGNSIA,EEVTRAK,QQYHRLPLA,ND 1.83 1.24 1.72 1.51 1.86,2 of 18 (2.65)
HMSMLTLGGMRMRNSVA,QMTTREN,QQYDRLPLS,0.70 1.59 0.98 ND 1.02 ND,0 of 18
IVSQLMLWGLHAKNSIA,EAQMRLN,QQYDRLPLF,0.84 0.85 0.17 0.68 0.75 0.59,0 of 18
TIGSTLMYGMRNSSNVA,EVSERLN,QQYDRLPLI,1.03 0.46 0.70 0.81 1.40 0.90,1 of 18 (1.58)
KIGMTLNQVYEKANNVA,DLVERVN,QQYHRLPLS,0.08 -0.35 -0.32 -0.67 -0.20 -0.29,0 of 18
SLGMVTMLEYAGRNSVA,NNSTREK,QQYDRLPLS,2.63 ND 2.20 ND 4.00 ND,2 of 18 (2.98)
MISQLMNLGQFAINSVA,QASIRNQ,QQYDRLPLM,1.69 1.26 2.48 1.81 1.59 1.77,0 of 18
MISQIYNMGSFAINSVA,QASLRNE,QQYDRLPLM,1.42 0.99 1.33 2.14 2.22 0.89,0 of 18
MISQVLNTLTRNGNNVA,DLQEREK,QQYFRLPLS,ND 1.60 2.22 1.22 1.91 1.79,0 of 18

5 of these entries, quoted again:

CDR-L1	CDR-L2	CDR-L3	log10 Kd, replicates	control signals
KLVNFMNRGTHNTSNIA	DAQNRSD	QQYARLPLA	1.03 0.55 0.70 0.95 0.94 0.51	1 of 18 (3.18)
TIGSTLMYGMRNSSNVA	EVSERLN	QQYDRLPLI	1.03 0.46 0.70 0.81 1.40 0.90	1 of 18 (1.58)
KITATMRFEQKQKNNIA	EVTTRSK	QQYYRLPLS	1.26 1.35 1.14 0.76 1.65 0.77	1 of 18 (1.93)
IVSQLMLWGMHAKNSIA	EAVTRLN	QQYDRLPLF	ND ND ND ND ND ND	0 of 18
KVSEFMRGLMQKTDSIA	DNVTRNS	QQYDRLPLS	1.46 2.58 2.15 1.56 1.80 1.39	2 of 18 (4.03)

The parent sequence was in this pool as ten entries: three were never detected, three once, and four in most replicates, with averages from 0.34 to 2.37. Values of this round are not directly comparable with the first-round values of the same sequences. As a blank, each scFv also met three strains without target: over all light chain designs, 4% of these pairings were detected, typically at 2.64 and seldom below 1.59. Also given: how often the same scFv was detected with the empty control strains, with their mean in brackets.

Reference: Li et al. 2023, doi:10.1038/s41467-023-39022-2. File: FLAb, binding data.